Antibody variant affinities, Ab-14 light chain, assay B

Data: MIT Lincoln Laboratory AlphaSeq set, Li et al. 2023, doi:10.1038/s41467-023-39022-2, as distributed in FLAb.

Target peptide (SARS-CoV-2 spike, HR2 region): PDVDLGDISGINAS

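The starting antibody came from a phage panning campaign against this peptide. These sequences belong to a second round, designed from the earlier measurements on random variants of the parent. Group labels follow the data file (Ctrl: baseline library sampled from a position-specific scoring matrix, with some repeated check sequences; GP: Gaussian process model; GPLM: also part of the Gaussian process libraries; HC: hill climbing; Gen: genetic algorithm; Gibbs: Gibbs sampling; a sequence that several methods proposed may carry one label only). AlphaSeq pools MATa yeast showing the antibodies with MATalpha yeast showing the peptide. After mating in shaken culture at 30 °C for 16 h, diploids were selected and their barcode pairs sequenced. Scores were corrected for input abundance and mapped to Kd with protein pairs of known affinity run in the same pool. Mating was done six times.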

Parent: Ab-14, a human scFv built as VH, three GGGGS repeats, VL. Only the CDRs of the light chain vary.
VH: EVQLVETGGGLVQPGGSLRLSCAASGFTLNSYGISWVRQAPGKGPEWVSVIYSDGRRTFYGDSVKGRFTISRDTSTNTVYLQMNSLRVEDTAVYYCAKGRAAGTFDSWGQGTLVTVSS
VL: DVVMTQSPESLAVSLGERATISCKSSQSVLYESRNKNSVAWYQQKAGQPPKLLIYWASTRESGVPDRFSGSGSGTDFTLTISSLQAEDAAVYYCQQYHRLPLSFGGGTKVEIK

Substitutions are numbered in sequence along the VL above, starting at 1 (not Kabat).
This list holds designs with at most six substitutions.
The read-out is the apparent dissociation constant on a log10 scale (nM): the lower, the stronger.
A mean of the replicates is given; it leaves out those without a signal.
An entry "nd" has no value in the source: the pair was not observed among the diploids in that replicate. This suggests poor binding but is not conclusive.
Values of this round are not directly comparable with the first-round values of the same sequences.
Three control strains display no target. For all light chain designs, 4% of the pairings with them gave a signal, with a median of 2.64 and one signal in twenty below 1.59, so weak values seen in few replicates may be background. For each scFv, signals with the empty controls are counted beside the result.
In the paper, a design with two or fewer of six values counts as a poor binder.
Of ten entries with the parent sequence, four were seen in most replicates (averages 0.34 to 2.37), three in one and three in none, so single entries are noisy.

* S25V V29D W56E E61C [GP_Gen] -> 0.38, nd, 0.42, 1.46, 0.05, 0.74 (mean 0.61; controls 0 of 18)
* S25L S26Q V29E W56H E61C [GP_Gen] -> 0.32, 0.31, 0.34, 0.21, 0.10, 0.40 (mean 0.28; controls 1 of 18)
* V29D S38W E61S [Ctrl] -> nd, nd, 3.48, nd, nd, 1.33 (mean 2.40; controls 1 of 18)
* S25L Q27M R34V N35F T59M [Ctrl] -> 1.24, 1.00, nd, 1.52, 1.01, 0.95 (mean 1.15; controls 0 of 18)
* L30H W56D H98V S103F [Ctrl] -> 1.84, 2.47, 2.00, 1.66, nd, 1.29 (mean 1.85; controls 0 of 18)
* V29L Q95D S103F [Ctrl] -> nd, nd, nd, nd, nd, nd (controls 0 of 18)
* L30M Y31P K36F [Ctrl] -> 2.04, 1.95, 1.98, 1.50, 2.01, 1.54 (mean 1.84; controls 1 of 18)
* Y31I K36M W56Q [Ctrl] -> 0.65, 0.48, 0.11, 0.22, 0.00, 0.49 (mean 0.32; controls 0 of 18)
* S25L V29D S33M W56E S62V [GP_Gibbs] -> 0.42, 0.54, 0.70, 0.17, 0.28, 0.59 (mean 0.45; controls 0 of 18)
* S25L S26M W56N E61L [GP_Gen] -> -0.27, -0.36, -0.39, -0.51, -0.39, -0.38 (mean -0.38; controls 1 of 18)
* K24Y W56M S62A [Ctrl] -> nd, 1.11, 0.73, 0.88, 1.23, 2.76 (mean 1.34; controls 1 of 18)
* K36V W56G A57G E61I S62M S103Y [Ctrl] -> 0.93, 1.02, 0.53, 0.45, 0.42, 0.74 (mean 0.68; controls 0 of 18)
* S25L Q27M V29M W56E [GP_Gen] -> -0.11, -0.11, -0.11, -0.46, -0.23, -0.20 (mean -0.20; controls 0 of 18)
* S25Q S28E Y31F E32G W56D [GP_HC] -> 0.33, 0.12, 0.09, -0.02, 0.32, 0.31 (mean 0.19; controls 1 of 18)
* S25L Q27Y V29E S33D W56N S62Q [GP_Gibbs] -> 0.03, 0.18, -0.02, 0.17, -0.07, 0.21 (mean 0.08; controls 0 of 18)
* Q27P Y31F W56N [GPLM_Gibbs] -> 0.33, 0.45, 0.33, 0.71, 0.62, 0.56 (mean 0.50; controls 0 of 18)
* K24M S25M Q27F K36Q W56A [Ctrl] -> 1.20, 1.06, 0.85, 1.11, 0.69, 0.87 (mean 0.96; controls 1 of 18)
* S25V S33W W56E [GP_Gen] -> -0.34, -0.14, -0.18, -0.31, -0.27, 0.03 (mean -0.20; controls 0 of 18)
* K24L Q27I V29Y L30P R34P W56E [GP_HC] -> 1.44, 0.70, 0.32, 0.90, 0.30, 0.70 (mean 0.73; controls 0 of 18)
* S25L V29F W56E S62V [GP_Gen] -> 0.09, -0.08, -0.01, -0.34, -0.13, -0.20 (mean -0.11; controls 1 of 18)
* Q27D T59C [Ctrl] -> 1.64, 2.45, 2.44, 1.52, 2.11, 3.04 (mean 2.20; controls 1 of 18)
* S25L V29W K36W W56N [GP_Gen] -> 0.24, 0.29, 0.02, -0.14, 0.02, 0.24 (mean 0.11; controls 1 of 18)
* S25L S26Q V29W W56H E61C [GP_Gen] -> 0.48, 0.36, 0.73, 0.12, 0.32, 0.48 (mean 0.42; controls 0 of 18)
* S25L V29W S38A W56N T59Q [GP_Gen] -> 0.36, 0.51, 0.10, 0.29, 0.24, 0.28 (mean 0.30; controls 0 of 18)
* S25L S26E L30N W56N [GP_HC] -> -0.28, -0.36, -0.49, -0.54, -0.40, -0.08 (mean -0.36; controls 0 of 18)
* S25L S26L S28Q V29T S62E [GP_HC] -> 1.36, 1.36, 0.74, 1.18, 1.38, 1.21 (mean 1.20; controls 2 of 18)
* S25Q V29Q W56Q [Ctrl] -> 0.03, 0.12, 0.01, 0.55, 0.18, 0.04 (mean 0.16; controls 0 of 18)
* S25L S26Q V29T E61L [GP_HC] -> 0.67, 1.83, 0.39, 0.57, 0.21, 1.36 (mean 0.84; controls 0 of 18)
* S25L V29Q E32D R34Q [GP_HC] -> 0.85, 1.15, 0.78, 0.49, 1.42, 1.32 (mean 1.00; controls 0 of 18)
* V29S R99Q [Ctrl] -> 0.49, 0.69, 0.36, 0.76, 0.79, 0.19 (mean 0.54; controls 0 of 18)
* Y31F W56Q S103Y [Ctrl] -> 0.85, 1.21, 0.69, 1.39, 1.19, 1.00 (mean 1.06; controls 1 of 18)
* S25H W56G S62A [Ctrl] -> 0.08, -0.17, -0.03, -0.29, 0.13, 0.12 (mean -0.03; controls 1 of 18)
* S25L L30P W56G [GP_Gen] -> -0.43, -0.05, -0.26, -0.25, -0.38, -0.04 (mean -0.23; controls 0 of 18)
* S25F S26Q W56D [GP_Gen] -> 0.27, 0.09, 0.06, -0.24, 0.07, 0.23 (mean 0.08; controls 0 of 18)
* S25L S26Q K36C W56N [GP_Gen] -> -0.03, -0.08, 0.00, -0.28, -0.11, 0.04 (mean -0.08; controls 1 of 18)
* S25L S26P V29H S38A W56Q [GP_Gen] -> -0.02, -0.07, -0.15, -0.09, 0.09, -0.06 (mean -0.05; controls 0 of 18)
* S25F R34L S38N V39I W56H [Ctrl] -> 0.24, 0.01, 1.27, 0.56, 0.55, 0.77 (mean 0.57; controls 1 of 18)
* E32P W56E [Ctrl] -> 0.45, 0.80, 0.30, 0.66, 0.16, 0.47 (mean 0.47; controls 1 of 18)
* Q27P [Ctrl] -> 2.09, 1.76, 2.17, nd, nd, 2.14 (mean 2.04; controls 0 of 18)
* Q27M S103M [Ctrl] -> 1.41, 1.43, nd, 3.06, 2.13, 1.71 (mean 1.95; controls 1 of 18)
* R34F W56D S62E [Ctrl] -> 0.53, 0.31, 0.21, 0.64, 0.14, 0.24 (mean 0.35; controls 1 of 18)
* K24S S28E R34I N35H [Ctrl] -> 1.33, nd, 1.54, nd, nd, 2.07 (mean 1.65; controls 1 of 18)
* S25L V29K W56N S62V [GP_Gen] -> 0.03, 0.29, 0.21, -0.18, -0.09, 0.14 (mean 0.07; controls 0 of 18)
* S25L S26E Q27I Y31Q W56N S62V [GP_Gibbs] -> 0.90, 0.09, 0.47, 0.33, 0.27, 0.24 (mean 0.38; controls 1 of 18)
* S25L Q27W V29N K36C W56N S62V [GP_Gibbs] -> 0.83, 0.75, 1.25, 0.88, 1.41, 0.96 (mean 1.01; controls 0 of 18)
* S25L V29W W56N E61Y [GP_Gen] -> 0.45, 0.43, 0.30, 0.19, 0.49, 0.40 (mean 0.38; controls 1 of 18)
* K24M S28E R34F Q95S [Ctrl] -> nd, nd, nd, 1.75, nd, nd (controls 1 of 18)
* Q27Y V29L L30T Q96F [Ctrl] -> nd, nd, nd, nd, nd, nd (controls 0 of 18)
* S25V V29F W56G [GP_Gen] -> 0.17, -0.16, -0.10, -0.14, 0.09, 0.17 (mean 0.01; controls 1 of 18)
* S28M L30E K36L [Ctrl] -> 1.48, 2.01, 1.80, 1.66, 2.17, nd (mean 1.83; controls 0 of 18)

7 of these entries, quoted again:

changes	group	log10 Kd, replicates	mean, log10 nM	empty controls
S25F R34L S38N V39I W56H	Ctrl	0.24, 0.01, 1.27, 0.56, 0.55, 0.77	0.57	1/18
S25F S26Q W56D	GP_Gen	0.27, 0.09, 0.06, -0.24, 0.07, 0.23	0.08	0/18
K24Y W56M S62A	Ctrl	nd, 1.11, 0.73, 0.88, 1.23, 2.76	1.34	1/18
S25L S26L S28Q V29T S62E	GP_HC	1.36, 1.36, 0.74, 1.18, 1.38, 1.21	1.20	2/18
K24S S28E R34I N35H	Ctrl	1.33, nd, 1.54, nd, nd, 2.07	1.65	1/18
S25L S26E L30N W56N	GP_HC	-0.28, -0.36, -0.49, -0.54, -0.40, -0.08	-0.36	0/18
S25L V29W W56N E61Y	GP_Gen	0.45, 0.43, 0.30, 0.19, 0.49, 0.40	0.38	1/18